{
  "sequences": {"note": "Chains of the proteins cited; added tags and fusions are not shown. Residues count along the entry.", "UniProt P10721, 26-976": "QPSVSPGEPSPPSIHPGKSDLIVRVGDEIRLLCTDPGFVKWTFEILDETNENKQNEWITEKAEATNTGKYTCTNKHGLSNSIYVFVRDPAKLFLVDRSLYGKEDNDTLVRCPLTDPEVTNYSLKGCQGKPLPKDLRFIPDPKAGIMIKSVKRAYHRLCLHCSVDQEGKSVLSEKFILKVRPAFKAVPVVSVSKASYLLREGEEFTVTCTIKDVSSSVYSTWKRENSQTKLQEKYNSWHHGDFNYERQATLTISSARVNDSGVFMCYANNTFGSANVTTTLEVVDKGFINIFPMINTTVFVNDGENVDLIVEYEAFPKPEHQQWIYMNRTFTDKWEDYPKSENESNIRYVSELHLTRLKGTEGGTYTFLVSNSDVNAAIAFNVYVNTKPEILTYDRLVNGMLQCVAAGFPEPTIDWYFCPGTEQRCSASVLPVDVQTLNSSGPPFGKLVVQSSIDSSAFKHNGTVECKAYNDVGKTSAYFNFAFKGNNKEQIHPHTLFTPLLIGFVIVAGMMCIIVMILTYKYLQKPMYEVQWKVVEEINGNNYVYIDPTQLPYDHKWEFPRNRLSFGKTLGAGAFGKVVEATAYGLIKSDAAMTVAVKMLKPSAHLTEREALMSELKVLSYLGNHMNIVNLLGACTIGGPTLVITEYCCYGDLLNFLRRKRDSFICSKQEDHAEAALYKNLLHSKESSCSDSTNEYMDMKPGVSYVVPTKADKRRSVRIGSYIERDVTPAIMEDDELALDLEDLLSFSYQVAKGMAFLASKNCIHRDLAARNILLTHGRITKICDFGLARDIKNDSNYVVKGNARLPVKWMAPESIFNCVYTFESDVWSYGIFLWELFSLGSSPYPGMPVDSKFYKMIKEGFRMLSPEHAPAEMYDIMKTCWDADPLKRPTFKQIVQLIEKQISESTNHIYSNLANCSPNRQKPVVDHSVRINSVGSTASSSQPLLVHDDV", "UniProt P10721, 26-976 V560G": "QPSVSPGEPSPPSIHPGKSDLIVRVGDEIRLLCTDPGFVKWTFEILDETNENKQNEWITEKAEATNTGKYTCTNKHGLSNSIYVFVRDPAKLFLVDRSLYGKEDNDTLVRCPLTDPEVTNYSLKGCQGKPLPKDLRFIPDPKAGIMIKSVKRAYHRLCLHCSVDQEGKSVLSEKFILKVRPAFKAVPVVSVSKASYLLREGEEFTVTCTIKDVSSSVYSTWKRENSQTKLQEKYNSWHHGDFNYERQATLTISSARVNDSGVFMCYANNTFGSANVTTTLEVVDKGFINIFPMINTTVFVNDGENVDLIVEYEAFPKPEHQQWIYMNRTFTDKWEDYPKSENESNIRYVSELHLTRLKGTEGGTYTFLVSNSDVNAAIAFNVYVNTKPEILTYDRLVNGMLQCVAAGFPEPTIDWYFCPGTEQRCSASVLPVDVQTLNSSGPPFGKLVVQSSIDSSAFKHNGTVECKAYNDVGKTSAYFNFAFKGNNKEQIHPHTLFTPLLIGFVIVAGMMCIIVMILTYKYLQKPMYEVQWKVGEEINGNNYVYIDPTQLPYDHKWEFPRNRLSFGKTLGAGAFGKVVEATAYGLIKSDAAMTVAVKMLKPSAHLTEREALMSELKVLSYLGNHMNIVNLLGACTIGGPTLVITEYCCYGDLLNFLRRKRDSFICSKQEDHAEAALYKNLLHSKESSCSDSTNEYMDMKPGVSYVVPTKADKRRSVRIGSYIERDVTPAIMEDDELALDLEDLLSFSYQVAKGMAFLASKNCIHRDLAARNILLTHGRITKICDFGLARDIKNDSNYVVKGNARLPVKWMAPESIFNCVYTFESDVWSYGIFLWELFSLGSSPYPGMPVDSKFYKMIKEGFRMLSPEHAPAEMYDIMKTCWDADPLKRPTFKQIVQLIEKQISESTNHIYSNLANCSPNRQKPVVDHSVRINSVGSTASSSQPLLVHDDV"},
  "source": "patent US9932410B2",
  "about": "“Human neutralizing anti-kit antibodies and uses thereof” (INSERM (Institut National de la Sante et de la Recherche …, priority 2013, dated 2018)",
  "type_in_all_cases": "cell-based",
  "key": {"[1]": {"target": "T1, KIT surface level on UT-7/EPO cells (wild type KIT) (Homo sapiens, UniProt P10721)", "T1 construct": "endogenous in cells; host or cells: UT-7/EPO human erythroleukemic cells", "assay": "Internalization assay: KIT surface level by FACS with 104D2 on UT-7/EPO cells"}, "[2]": {"target": "T2, KIT surface level on HMC1.1 cells (Homo sapiens, UniProt P10721, V560G)", "T2 construct": "endogenous in cells; host or cells: HMC1.1 mastocytoma cells", "assay": "Internalization assay: KIT surface level by FACS on HMC1.1 cells", "description": "FIG. 5: Antibody modulation of oncogenic KIT. […] Cell viability is expressed in % compared to non treated cells. […] As indicated and analyzed (B) by FACS using 104D2 anti-KIT antibody or (C) by western blot using anti-KIT and phospho-specific anti-KIT antibodies. (D) Three days treatment with anti-KIT antibodies maintained a low level of KIT on both mastocytoma cell lines. […] Cells were washed at room temperature with PBS, fixed for 15 min. at 4° C. (Cytofix, BD biosciences) and stained with the non-competing anti-human KIT 104D2-conjugated to PE/Cy7 and analyzed by FACS as mentioned above."}, "[3]": {"target": "T3, total level of KIT in UT7/EPO cells (Homo sapiens, UniProt P10721)", "T3 construct": "endogenous in cells; host or cells: UT-7/EPO human erythroleukemic cells", "assay": "Total KIT level by Western blot in UT7/EPO cells", "conditions": "UT7/EPO with EPO", "description": "FIG. 4: Antibody modulation of KIT levels in a WT context. KIT levels were estimated by FACS (A, B) using non competing 104D2-anti-KIT antibody. (A) UT7/EPO cells were incubated in complete IMDM medium complemented with EPO for 1, 4, or 24 hrs or with scFv-Fc antibodies (10 μg/mL) or CHO-KL diluted 500 times. (B) UT7/EPO cells were incubated in complete IMDM medium complemented with EPO, alone or with CHO-KL or antibodies (5 or 50 μg/mL) or with CHO-KL (diluted 500 times) alone, as indicated. NM: non marked cells. Results expressed in MFI (Mean fluorescence intensity). Total KIT levels were also determined by Western blot (C) using KIT and phospho-KIT specific antibodies as indicated. Cells were incubated for 5 days before analysis, both with 10 μg/mL of antibodies.\nFirst, they analysed short term effect of anti-KIT compared to SCF treatment. […] Cell surface down-regulation remained stable after 24 hrs, both in the presence of antibodies or ligand even though after 2 hours of treatment, KIT surface levels started to increase slightly due, at least partially, to increased synthesis since this increase was inhibited by CHX (not shown). […] Then, they analyzed long term effect of scFv-Fc treatment (FIG. 4B). […] They also measured total level of KIT by Western blot upon antibody short or long treatment of UT7/EPO cells cultivated with EPO."}},
  "data": [
    {"substance": "SCF: KIT ligand; recombinant human SCF or CHO-KL supernatant (mouse SCF) used as source", "values": [
      {"measurement": "KIT surface levels after long term treatment", "setting": "[1]; 5 days, UT7/EPO cells cultivated in EPO", "value": "did not modulate KIT levels"},
      {"measurement": "KIT surface down-regulation", "setting": "[1]; after 1 hour, UT-7/EPO in EPO, scFv-Fc 10 μg/mL or CHO-KL diluted 500 times", "value": 70, "unit": "%"},
      {"measurement": "KIT surface levels on HMC1.1 after 24 hr", "setting": "[2]", "value": "almost reached initial level"},
      {"measurement": "KIT total levels, short treatment", "setting": "[3]; after 24 hours", "value": "not drastically affected"},
      {"measurement": "KIT total levels, long term treatment", "setting": "[3]; long term (5 days), 10 μg/mL", "value": "reduced drastically KIT levels"}
    ]}
  ]
}
